Measured values taken from patent US8987293B2, “Morphinans useful as analgesics” (Phoenix Pharmalabs, Inc., priority 2010, dated 2015).

Sequences of proteins named here, by UniProt entry; tags and fusion partners are left off.
UniProt P35372, whole entry: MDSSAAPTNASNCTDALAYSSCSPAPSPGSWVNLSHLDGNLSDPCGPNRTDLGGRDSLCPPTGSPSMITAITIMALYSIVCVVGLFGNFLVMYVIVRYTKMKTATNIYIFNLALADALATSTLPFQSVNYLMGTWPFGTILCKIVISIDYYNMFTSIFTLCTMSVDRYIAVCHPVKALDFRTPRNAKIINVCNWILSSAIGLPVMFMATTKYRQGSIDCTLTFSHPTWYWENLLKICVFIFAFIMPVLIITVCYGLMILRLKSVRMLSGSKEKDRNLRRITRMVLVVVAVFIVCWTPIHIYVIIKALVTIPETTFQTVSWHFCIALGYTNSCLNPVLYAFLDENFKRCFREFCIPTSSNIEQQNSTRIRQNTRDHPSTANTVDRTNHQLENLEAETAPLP

Target: T1, human mu receptor (Homo sapiens, UniProt P35372)
T1 construct: expressed in transfected cells; host or cells: CHO cells
Experiment: [35S]GTP γS binding functional assay, CHO cell membranes
Format: biochemical
Details: 1 hr at 25 C

SMILES: C[C@H](C1CC1)N1CC[C@]23CCCC[C@H]2[C@H]1Cc1ccc(O)cc13 [Compound 5]
- percent stimulation at the mu receptor: 22.6±0.1%
